Yeast mating assay 1: variants of the scFv Ab-14

From the AlphaSeq antibody data of Engelhart et al. 2022 (doi:10.1038/s41597-022-01779-4), copy in the FLAb collection.

The target is the same throughout: PDVDLGDISGINAS, from the HR2 region of SARS-CoV-2 spike.

Each scFv is VH, a 15-residue (Gly4Ser)3 linker, VL, as in the parent Ab-14, and differs from it in the CDRs of the light chain only.
VH: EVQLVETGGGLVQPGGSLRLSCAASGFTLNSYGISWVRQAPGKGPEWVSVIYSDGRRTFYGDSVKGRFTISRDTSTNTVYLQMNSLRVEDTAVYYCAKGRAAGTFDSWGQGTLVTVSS
VL: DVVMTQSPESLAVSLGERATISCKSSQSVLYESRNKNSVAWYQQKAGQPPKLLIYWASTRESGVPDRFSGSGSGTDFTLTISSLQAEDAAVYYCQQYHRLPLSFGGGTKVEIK

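The starting antibody came from a phage panning campaign against this peptide. Variants in AAYL50 differ from the parent at up to three CDR positions; double and triple changes were sampled at random. The assay is AlphaSeq: two haploid yeast populations carry antibody and antigen on their surface. Pairs that bind mate more often; barcode pairs of the diploids are counted by sequencing. A regression on co-assayed BCL2-family reference pairs converts the normalised counts of each replicate to an apparent Kd. Each pool was mated in three replicate cultures.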

The whole VL of each variant is written out. Scale: log10 of Kd in nM, estimated from mating counts; low values are strong binders. An entry "n.d." has no value in the source: the pair was not observed among the diploids in that replicate. This suggests poor binding but is not conclusive. Nonspecific signal, from three strains lacking the peptide, appeared in 18% of pairings of library AAYL50, centred on 4.19 (5% of these signals below 2.99); values are not corrected for it. For each scFv, signals with the empty controls are counted beside the result, with their mean in brackets.

| VL | log10 Kd (nM) by replicate | signal with controls |
|---|---|---|
| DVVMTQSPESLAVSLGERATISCKSSQSVLYESRNKNSVAWYQQKAGQPPKLLIYWASTRESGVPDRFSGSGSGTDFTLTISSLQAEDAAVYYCQQYHILKLSFGGGTKVEIK | n.d. / n.d. / n.d. | 3 of 9 (4.89) |
| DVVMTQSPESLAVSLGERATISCKSSQSVYYESRNKNSVAWYQQKAGQPPKLLIYWAHTRESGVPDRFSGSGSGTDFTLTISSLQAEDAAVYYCQQYHRLPLIFGGGTKVEIK | 2.04 / 2.37 / 2.24 | 1 of 9 (5.02) |
| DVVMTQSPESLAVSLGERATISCYRSQSVRYESRNKNSVAWYQQKAGQPPKLLIYWASTRESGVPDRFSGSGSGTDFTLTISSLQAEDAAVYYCQQYHRLPLSFGGGTKVEIK | n.d. / n.d. / 4.60 | 2 of 9 (3.97) |
| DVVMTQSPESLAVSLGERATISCISSQSVLYESRNYNSVGWYQQKAGQPPKLLIYWASTRESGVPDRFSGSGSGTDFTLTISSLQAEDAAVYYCQQYHRLPLSFGGGTKVEIK | 3.20 / 4.38 / n.d. | 1 of 9 (5.03) |
| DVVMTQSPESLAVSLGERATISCKSSVFVLYESRNKNSVAWYQQKAGQPPKLLIYWASTRRSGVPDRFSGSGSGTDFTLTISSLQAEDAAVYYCQQYHRLPLSFGGGTKVEIK | 2.30 / n.d. / 3.36 | 2 of 9 (3.20) |
| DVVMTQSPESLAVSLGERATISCKSSSSVRYESRNVNSVAWYQQKAGQPPKLLIYWASTRESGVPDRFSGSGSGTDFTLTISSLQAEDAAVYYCQQYHRLPLSFGGGTKVEIK | 1.19 / 1.13 / 0.83 | 0 of 9 |
| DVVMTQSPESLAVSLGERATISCKSSQSVLYESRNKNSVAWYQQKAGQPPKLLIYWASERESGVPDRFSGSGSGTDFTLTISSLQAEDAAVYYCQQYLRLPLSFGGGTKVEIK | 2.06 / 1.94 / 2.36 | 2 of 9 (3.60) |
| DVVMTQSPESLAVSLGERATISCKSSQSVLYESRVKNSVAWYQQKAGQPPKLLIYWASTRESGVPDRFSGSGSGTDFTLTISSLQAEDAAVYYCQQYHRMQLSFGGGTKVEIK | n.d. / n.d. / n.d. | 0 of 9 |
| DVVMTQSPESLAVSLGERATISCKSSQSVLYESRNKNVVAWYQQKAGQPPKLLIYWASTRESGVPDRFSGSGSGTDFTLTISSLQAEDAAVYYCQQYSRLPPSFGGGTKVEIK | n.d. / n.d. / n.d. | 0 of 9 |
| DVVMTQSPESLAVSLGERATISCLSSQSMLYESRNKNSVAWYQQKAGQPPKLLIYWASTREFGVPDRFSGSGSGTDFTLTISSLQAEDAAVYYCQQYHRLPLSFGGGTKVEIK | 1.68 / 1.64 / 1.90 | 1 of 9 (4.12) |
| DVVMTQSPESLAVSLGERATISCKSSQSDLYESENKNSVAWYQQKAGQPPKLLIYWASTRTSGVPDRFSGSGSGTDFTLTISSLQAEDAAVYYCQQYHRLPLSFGGGTKVEIK | 0.98 / 1.12 / 1.00 | 3 of 9 (3.32) |
| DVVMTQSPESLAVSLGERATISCKSSQSVLYESRNKNSVAWYQQKAGQPPKLLIYWASTRELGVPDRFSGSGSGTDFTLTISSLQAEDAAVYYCQQYHRLPNSFGGGTKVEIK | n.d. / n.d. / n.d. | 1 of 9 (2.37) |
| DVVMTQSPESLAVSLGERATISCKSSQDVLYEHRNKNSVAWYQQKAGQPPKLLIYWASTRESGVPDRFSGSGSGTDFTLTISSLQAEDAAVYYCQQYHRLPMSFGGGTKVEIK | 3.35 / 3.82 / n.d. | 0 of 9 |
| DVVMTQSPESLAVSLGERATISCKSSQSVLYESRNKNSVAWYQQKAGQPPKLLIYWAHTRESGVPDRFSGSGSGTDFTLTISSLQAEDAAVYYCQQYHRLPASFGGGTKVEIK | n.d. / n.d. / n.d. | 1 of 9 (3.53) |
| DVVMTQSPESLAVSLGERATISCKSSQSGKYESRNKVSVAWYQQKAGQPPKLLIYWASTRESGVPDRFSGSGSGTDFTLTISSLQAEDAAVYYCQQYHRLPLSFGGGTKVEIK | n.d. / n.d. / n.d. | 0 of 9 |

Extract of 2 entries:

VL,log10 Kd (nM) by replicate,signal with controls
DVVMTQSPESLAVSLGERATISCKSSQSVLYESRVKNSVAWYQQKAGQPPKLLIYWASTRESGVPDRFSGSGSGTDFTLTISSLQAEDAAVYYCQQYHRMQLSFGGGTKVEIK,n.d. / n.d. / n.d.,0 of 9
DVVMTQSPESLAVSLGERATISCKSSQSVLYESRNKNSVAWYQQKAGQPPKLLIYWASERESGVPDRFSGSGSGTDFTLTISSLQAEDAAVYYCQQYLRLPLSFGGGTKVEIK,2.06 / 1.94 / 2.36,2 of 9 (3.60)